Source: patent publication US20260364003A1, “EYE DROP MICROSUSPENSIONS OF MTOR INHIBITORS” (OCULIS OPERATIONS SARL, priority 2022, published 2026)

Assay: Phase-solubility of everolimus in aqueous cyclodextrin solutions
Assay type: physicochemical
Conditions: pure aqueous cyclodextrin solutions, 25 °C
Procedure: The cyclodextrin concentration ranged from 0 to 10% (w/w) except that of β-cyclodextrin that ranged from 0 to 1.50% (w/w). Everolimus was added to each cyclodextrin solution in excess, the samples were continuously agitated on a magnetic stirrer for 24 hours. The next day the samples were filtered through 0.45 μm PES syringe filters and the concentration of dissolved everolimus determined by HPLC as described in Example 1.

Question: For OC[C@H]1O[C@@H]2O[C@H]3[C@H](O)[C@@H](O)[C@@H](O[C@H]4[C@H](O)[C@@H](O)[C@@H](O[C@H]5[C@H](O)[C@@H](O)[C@@H](O[C@H]6[C@H](O)[C@@H](O)[C@@H](O[C@H]7[C@H](O)[C@@H](O)[C@@H](O[C@H]8[C@H](O)[C@@H](O)[C@@H](O[C@H]9[C@H](O)[C@@H](O)[C@@H](O[C@H]1[C@H](O)[C@H]2O)O[C@@H]9CO)O[C@@H]8CO)O[C@@H]7CO)O[C@@H]6CO)O[C@@H]5CO)O[C@@H]4CO)O[C@@H]3CO [γ-cyclodextrin], which affinity for everolimus is on record?
Answer: highest affinity
